Data on one substance can be found in PMC3501490, “An Investigation of Hierachical Protein Recruitment to the Inhibitory Platelet Receptor, G6B-b” (PLoS ONE, 2012).

For the assay, the target named is FcRγ dual phosphopeptide. In words: pull-down; direct pull down assay: peptide on Streptactin beads incubated with equimolar purified SH2 domains (100 pM [sic] each for the tandem SH2 domains), 250 µl PBS, 30 minutes, room temperature; bound and unbound fractions on Coomassie-stained gels.

Consider “Syk tandem (N+C) SH2 domains (domain or fragment)”, for which the percent bound is 95%.
